Laboratory results taken from patent US9873704B2, “Heterocyclic compounds and their uses” (Amgen Inc., priority 2009, dated 2018).

The chains behind the UniProt entries cited, without tags or fusion partners. Where a name states a change or a piece, a line headed by the entry shows the natural chain unless it says otherwise.
UniProt O00329: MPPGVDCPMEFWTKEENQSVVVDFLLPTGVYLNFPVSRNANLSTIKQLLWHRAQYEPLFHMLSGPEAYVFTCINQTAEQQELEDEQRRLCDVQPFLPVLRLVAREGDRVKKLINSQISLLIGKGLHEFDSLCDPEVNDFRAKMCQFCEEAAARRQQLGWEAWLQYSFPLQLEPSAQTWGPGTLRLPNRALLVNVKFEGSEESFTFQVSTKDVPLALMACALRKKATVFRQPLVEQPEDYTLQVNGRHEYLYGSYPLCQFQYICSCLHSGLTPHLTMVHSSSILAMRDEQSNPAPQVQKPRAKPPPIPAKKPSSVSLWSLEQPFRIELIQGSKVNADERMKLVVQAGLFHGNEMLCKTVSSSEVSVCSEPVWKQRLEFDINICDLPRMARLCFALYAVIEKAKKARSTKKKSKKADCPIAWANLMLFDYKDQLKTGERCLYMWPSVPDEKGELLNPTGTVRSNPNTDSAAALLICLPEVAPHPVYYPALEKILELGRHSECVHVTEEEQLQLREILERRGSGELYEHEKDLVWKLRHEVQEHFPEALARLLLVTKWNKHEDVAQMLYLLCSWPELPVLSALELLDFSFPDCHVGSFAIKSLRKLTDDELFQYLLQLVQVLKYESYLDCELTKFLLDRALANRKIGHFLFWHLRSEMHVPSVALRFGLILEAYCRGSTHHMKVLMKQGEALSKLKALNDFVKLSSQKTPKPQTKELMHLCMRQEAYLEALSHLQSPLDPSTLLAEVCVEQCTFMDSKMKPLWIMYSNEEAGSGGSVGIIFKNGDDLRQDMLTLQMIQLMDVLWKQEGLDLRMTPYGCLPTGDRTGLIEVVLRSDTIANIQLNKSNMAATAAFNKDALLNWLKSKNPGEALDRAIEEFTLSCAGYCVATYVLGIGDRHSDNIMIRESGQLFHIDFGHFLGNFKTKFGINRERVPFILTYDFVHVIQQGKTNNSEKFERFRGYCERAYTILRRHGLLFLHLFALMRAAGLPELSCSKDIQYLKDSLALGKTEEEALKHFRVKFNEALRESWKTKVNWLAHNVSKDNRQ

Target: T1, PI3Kδ (Homo sapiens, UniProt O00329)
T1 construct: Full length p110 subunits of PI3k α, β and δ, N-terminally labeled with polyHis tag; polyHis (N); made in house; host or cells: Sf9 insect cells (baculovirus)
Experiment: PI3Kδ Alphascreen assay
Type: biochemical

CC(Nc1ncnc(N)c1C#N)c1nc2ccc(F)cc2c(NCCN(C)C)c1-c1ccccc1 (stereo not drawn)
Ki: 1.33 nM

CC(Nc1nc[nH]c(=O)c1C#N)c1nc2ccc(F)cc2cc1-c1ccccn1 (stereo not drawn) [4-(1-(6-Fluoro-3-(pyridin-2-yl)quinolin-2-yl)ethylamino)-6-hydroxypyrimidine-5-carbonitrile]
Ki: 54.8 nM

CC(Nc1ncnc(N)c1C#N)c1nc2ccc(F)cc2cc1-c1ccccn1 (stereo not drawn) [4-Amino-6-(1-(6-fluoro-3-(pyridin-2-yl)quinolin-2-yl)ethylamino)pyrimidine-5-carbonitrile]
Ki: 4.22 nM
